We go through three substances from US11845808B2, “Peptide inhibitors of interleukin-23 receptor and their use to treat inflammatory diseases” (Janssen Biotech, Inc., priority 2020, dated 2023).

The nature of one data set: Stability in rat plasma. Particulars: SD rat plasma, 37° C., 20 μM. Format: in vitro ADME.
A short description of data set [1]: Stability in simulated intestinal fluid (SIF). The class given is in vitro ADME. Conditions: 100 fold dilution of standard SIF concentration, 37° C., 20 μM. Summed up: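 Peptides at 20 μM final were incubated at 37 °C in SIF (potassium phosphate with pancreatin, pH 6.8), and reactions were quenched with acetonitrile/1% formic acid at time points from 0 min to 24 h. Percent remaining relative to time 0 was determined by LC-MS/MS against an internal standard, and half-life came from a first-order decay fit.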

A value given as a limit tells only on which side of the number the result lay.

Take “Ac-[Pen]-N-T-[W(7-Ph)]-[Lys(Ac)]-[Pen]-Phe[4-(2-aceylaminoethoxy)]-[2-Nal]-[THP]-[Lys(Ac)]-N-[3Pal]-[Sarc]-NH2 [Peptide 137]”: the “t½: Rat Plasma EDTA” value in “Stability in rat plasma” is over 24.0 h. In data set [1], the “SIF t½” value was 22.7 h.

“Ac-[Pen]-N-T-[W(7-Me)]-[Lys(Ac)]-[Pen]-Phe[4-(2-aminoethoxy)]-[2-Nal]-[THP]-E-N-[3Pal]-[Sarc]-NH2 [Peptide 104]”: in the data set “Stability in rat plasma”, the “t½: Rat Plasma EDTA” value was over 24.0 h. Besides, the “SIF t½” value in data set [1] was over 24.0 h.

Take “Ac-[Pen]-N-T-[W(7-Ph)]-[Lys(Ac)]-[Pen]-Phe[4-(2-aminoethoxy)]-[2-Nal]-[THP]-E-N-[3Pal]-[Sarc]-NH2 [Peptide 106]”: in the data set “Stability in rat plasma”, the “t½: Rat Plasma EDTA” value is over 24.0 h. Besides, the “SIF t½” value in data set [1] was over 23.0 h.
